Experiments:
Experiment in all cases: Prophylactic effect on ischemic breakdown of cytoskeletal proteins, 5-minute brain ischemia-reperfusion model
Format in all cases: in vivo, gerbil
MAP-2 = tested on: MAP-2; design: key to Effect on decrease in MAP-2: +: Statistically significant; -: Not effective
Description: (§1) A gerbil was immobilized in supine position and median section was performed in the cervical region under local anesthesia. Then, the bilateral common carotid arteries were stripped off carefully not to injure the vagus and sympathetic nerves running in parallel, . Then, each common carotid artery was obstructed with a small clip and after an interval of 5, 10 or 15 minutes, the clips were removed. The animal was decapitated immediately, 4 days or 1 week after the removal of the clips, and the brain was isolated. Untreated animals served as controls and animals undergoing sham operation (involving the stripping procedure only) were also investigated. The isolated brain was sectioned under ice-cooling into the frontal cortex (upper 2/3, approximately corresponding to the 1st to the 5th layer, ∼80 mg), striatum (∼20 mg) and hippocampus (∼50 mg) and each portion was homogenized in 4 times volume of (v/w) of 0.01 M phosphate buffer (pH 7.2). Each homogenate was centrifuged at 100,000 G for 30 minutes to obtain a supernatant. Equal parts of these supernatants were subjected to SDS-polyacrylamide gel (5%) electrophoresis and the proteins, namely MAP-2 (MW: 250-260K) calspectin (MW: 230-240K) and clathrin (MW: 180K), were quantified by measuring the absorbances at 560 nm with a densitometer (CS-930, Shimazu), and the proportion of each protein to the total water-soluble protein (exactly, the integral sum of the absorbance areas) was calculated. In addition, the relative percentage to the value of the untreated control group was also calculated.
(§2) Two series of experiments were carried out. […] One hour after the reperfusion, the animal was killed by decapitation and the brain was removed. […] One hour after the final administration (day 5), the animal was decapitated and the brain was isolated. The isolated brain was subjected to fractionation and electrophoresis as described above.

calspectin = tested on: calspectin; design: key to Effect on decrease in Calspectin: +: Statistically significant; -: Not effective
Description: as §1, §2

clathrin = tested on: clathrin; design: key to Effect on decrease in Clathrin: +: Statistically significant; -: Not effective
Description: as §1, §2

[1] = Cortex, 0.01 mg/kg s.c. 1 hour before ischemia, 1 hour after ischemia
[2] = Cortex, 0.1 mg/kg s.c. 1 hour before ischemia and once a day for 4 days, 4 days after ischemia
[3] = Cortex, 0.1 mg/kg s.c. 1 hour before ischemia, 1 hour after ischemia
[4] = Cortex, 1 mg/kg s.c. 1 hour before ischemia and once a day for 4 days, 4 days after ischemia
[5] = Cortex, 1 mg/kg s.c. 1 hour before ischemia, 1 hour after ischemia
[6] = Cortex, 10 mg/kg s.c. 1 hour before ischemia and once a day for 4 days, 4 days after ischemia
[7] = Frontal cortex, Left: dosed 1 hour before ischemia, killed 1 hour after ischemia
[8] = Frontal cortex, Right: dosed 1 hour before ischemia and for 4 subsequent days, killed 1 hour after the last dosing
[9] = Hippocampus, 0.01 mg/kg s.c. 1 hour before ischemia, 1 hour after ischemia
[10] = Hippocampus, 0.1 mg/kg s.c. 1 hour before ischemia and once a day for 4 days, 4 days after ischemia
[11] = Hippocampus, 0.1 mg/kg s.c. 1 hour before ischemia, 1 hour after ischemia
[12] = Hippocampus, 1 mg/kg s.c. 1 hour before ischemia and once a day for 4 days, 4 days after ischemia
[13] = Hippocampus, 1 mg/kg s.c. 1 hour before ischemia, 1 hour after ischemia
[14] = Hippocampus, 10 mg/kg s.c. 1 hour before ischemia and once a day for 4 days, 4 days after ischemia
[15] = Hippocampus, Left: dosed 1 hour before ischemia, killed 1 hour after ischemia
[16] = Hippocampus, Right: dosed 1 hour before ischemia and for 4 subsequent days, killed 1 hour after the last dosing
[17] = Striatum, 0.01 mg/kg s.c. 1 hour before ischemia, 1 hour after ischemia
[18] = Striatum, 0.1 mg/kg s.c. 1 hour before ischemia and once a day for 4 days, 4 days after ischemia
[19] = Striatum, 0.1 mg/kg s.c. 1 hour before ischemia, 1 hour after ischemia
[20] = Striatum, 1 mg/kg s.c. 1 hour before ischemia and once a day for 4 days, 4 days after ischemia
[21] = Striatum, 1 mg/kg s.c. 1 hour before ischemia, 1 hour after ischemia
[22] = Striatum, 10 mg/kg s.c. 1 hour before ischemia and once a day for 4 days, 4 days after ischemia
[23] = Striatum, Left: dosed 1 hour before ischemia, killed 1 hour after ischemia
[24] = Striatum, Right: dosed 1 hour before ischemia and for 4 subsequent days, killed 1 hour after the last dosing
[25] = sum of left and right (in brackets)

## COC(=O)C1=C(C)NC(C)=C(C(=O)OCCN(C)Cc2ccccc2)C1c1cccc([N+](=O)[O-])c1 (centres unmarked) [Nicardipine, nicardipine]
MAP-2; [1]
  MAP-2 protein concentration: 67.8± 7.7 % of normal value
MAP-2; [2]
  MAP-2 protein concentration: 41.6± 5.6 % of normal value
MAP-2; [3]
  MAP-2 protein concentration: 78.1± 7.0 % of normal value
MAP-2; [4]
  MAP-2 protein concentration: 50.9± 6.3 % of normal value
MAP-2; [5]
  MAP-2 protein concentration: 85.6± 9.7 % of normal value
MAP-2; [6]
  MAP-2 protein concentration: 55.6± 6.1 % of normal value
MAP-2; [7]
  Effect on decrease in MAP-2: +/+
MAP-2; [8]
  Effect on decrease in MAP-2: +/+
MAP-2; [9]
  MAP-2 protein concentration: 45.2± 6.2 % of normal value
MAP-2; [10]
  MAP-2 protein concentration: 44.8± 4.5 % of normal value
MAP-2; [11]
  MAP-2 protein concentration: 46.7± 2.6 % of normal value
MAP-2; [12]
  MAP-2 protein concentration: 38.9± 6.4 % of normal value
MAP-2; [13]
  MAP-2 protein concentration: 50.5± 4.4 % of normal value
MAP-2; [14]
  MAP-2 protein concentration: 49.8± 4.3 % of normal value
MAP-2; [15]
  Effect on decrease in MAP-2: -/-
MAP-2; [16]
  Effect on decrease in MAP-2: -/-
MAP-2; [17]
  MAP-2 protein concentration: 53.5± 5.4 % of normal value
MAP-2; [18]
  MAP-2 protein concentration: 44.8± 2.9 % of normal value
MAP-2; [19]
  MAP-2 protein concentration: 56.7± 9.4 % of normal value
MAP-2; [20]
  MAP-2 protein concentration: 51.0± 6.8 % of normal value
MAP-2; [21]
  MAP-2 protein concentration: 55.0± 4.3 % of normal value
MAP-2; [22]
  MAP-2 protein concentration: 57.0± 2.2 % of normal value
MAP-2; [23]
  Effect on decrease in MAP-2: +/+
MAP-2; [24]
  Effect on decrease in MAP-2: +/+
calspectin; [1]
  Calspectin protein concentration: 80.5± 5.1 % of normal value
calspectin; [2]
  Calspectin protein concentration: 54.7± 8.3 % of normal value
calspectin; [3]
  Calspectin protein concentration: 88.2± 4.5 % of normal value
calspectin; [4]
  Calspectin protein concentration: 51.9±10.5 % of normal value
calspectin; [5]
  Calspectin protein concentration: 88.8± 5.3 % of normal value
calspectin; [6]
  Calspectin protein concentration: 64.6± 8.4 % of normal value
calspectin; [7]
  Effect on decrease in Calspectin: -/-
calspectin; [8]
  Effect on decrease in Calspectin: -/-
calspectin; [9]
  Calspectin protein concentration: 78.5±11.8 % of normal value
calspectin; [10]
  Calspectin protein concentration: 57.6± 4.8 % of normal value
calspectin; [11]
  Calspectin protein concentration: 70.4± 5.3 % of normal value
calspectin; [12]
  Calspectin protein concentration: 59.5± 6.7 % of normal value
calspectin; [13]
  Calspectin protein concentration: 65.4± 9.2 % of normal value
calspectin; [14]
  Calspectin protein concentration: 61.2± 9.1 % of normal value
calspectin; [15]
  Effect on decrease in Calspectin: -/-
calspectin; [16]
  Effect on decrease in Calspectin: -/-
calspectin; [17]
  Calspectin protein concentration: 56.6± 4.4 % of normal value
calspectin; [18]
  Calspectin protein concentration: 55.6± 7.3 % of normal value
calspectin; [19]
  Calspectin protein concentration: 63.7± 5.8 % of normal value
calspectin; [20]
  Calspectin protein concentration: 59.6± 4.6 % of normal value
calspectin; [21]
  Calspectin protein concentration: 54.7± 6.0 % of normal value
calspectin; [22]
  Calspectin protein concentration: 56.8± 6.4 % of normal value
calspectin; [23]
  Effect on decrease in Calspectin: -/-
calspectin; [24]
  Effect on decrease in Calspectin: -/-
calspectin; [25]
  Total score, Calspectin: 0/0 (0)
clathrin; [1]
  Clathrin protein concentration: 69.7± 5.8 % of normal value
clathrin; [2]
  Clathrin protein concentration: 65.0± 6.6 % of normal value
clathrin; [3]
  Clathrin protein concentration: 66.4± 5.0 % of normal value
clathrin; [4]
  Clathrin protein concentration: 55.3± 2.6 % of normal value
clathrin; [5]
  Clathrin protein concentration: 67.2± 3.7 % of normal value
clathrin; [6]
  Clathrin protein concentration: 54.8± 2.0 % of normal value
clathrin; [7]
  Effect on decrease in Clathrin: -/-
clathrin; [8]
  Effect on decrease in Clathrin: -/-
clathrin; [9]
  Clathrin protein concentration: 53.0± 6.1 % of normal value
clathrin; [10]
  Clathrin protein concentration: 48.6± 8.9 % of normal value
clathrin; [11]
  Clathrin protein concentration: 49.0± 3.3 % of normal value
clathrin; [12]
  Clathrin protein concentration: 50.3± 5.2 % of normal value
clathrin; [13]
  Clathrin protein concentration: 56.9± 7.6 % of normal value
clathrin; [14]
  Clathrin protein concentration: 50.4± 4.9 % of normal value
clathrin; [15]
  Effect on decrease in Clathrin: -/-
clathrin; [16]
  Effect on decrease in Clathrin: -/-
clathrin; [17]
  Clathrin protein concentration: 53.1± 9.2 % of normal value
clathrin; [18]
  Clathrin protein concentration: 51.7± 7.4 % of normal value
clathrin; [19]
  Clathrin protein concentration: 48.3± 3.9 % of normal value
clathrin; [20]
  Clathrin protein concentration: 59.9± 7.3 % of normal value
clathrin; [21]
  Clathrin protein concentration: 64.5± 6.5 % of normal value
clathrin; [22]
  Clathrin protein concentration: 55.4± 7.3 % of normal value
clathrin; [23]
  Effect on decrease in Clathrin: -/-
clathrin; [24]
  Effect on decrease in Clathrin: -/-
clathrin; [25]
  Total score, Clathrin: 0/0 (0)
